This is a sample that favours compounds with a hit; in the whole collection about 1.6% have one here.
UUG fidelity: yeast start codon fidelity modulation | S. cerevisiae UUG-firefly luciferase reporter, luminescence/redox ratio | activity score, % at 18.7 µM | 0.13% of 350,000 active | AID 602363;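 active means replicate mean at a twofold rise or more, about +100% in these data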;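 further: firefly luciferase made from a UUG start codon reports start codon fidelity; reporter light over untreated wells divided by growth signal over untreated wells; some hits fall short of that in this replicate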
ARNT-TACC3 inh: disruptors of human ARNT/TACC3 interaction; Q9Y6A5; AlphaScreen His-ARNT PAS-B/GST-TACC3 binding, luminescence; TACC3 fragment carries E629A point mutation; inhibition, % at 9.99 µM; 0.66% of 390,000 active; AID 623870;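 active means mean inhibition of replicates at least 50% and at least half of replicates each reaching 50%; inconclusive means half or more replicates reach 50% but mean below 50%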;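 further: 0% = complete ARNT plus TACC3 wells and 100% = ARNT alone without TACC3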
CAL PDZ FP-1: inhibitors of human CAL PDZ peptide binding; purified CAL PDZ, TMR-peptide fluorescence polarization, 1 h; Q9HD26; 0.92% of 300,000 active; inhibition, % at 24.9 µM; AID 602252;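 active means mean inhibition of at least 30% with at least half of replicates also reaching 30%; inconclusive means no clear call, values can overlap the other calls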;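 further: 0% = DMSO neutral control and 100% = excess unlabeled competitor peptide PRC23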
PglD DTNB: inhibitors of Campylobacter jejuni PglD acetyltransferase; purified PglD enzyme, DTNB colorimetric CoA detection; inhibition, % at 12.5 µM; 0.098% of 360,000 active; in the data active means inhibition above about 16%, passing the limit was not always enough; inconclusive means no clear call, values can overlap the other calls
Vif imaging: blocks HIV Vif function; 0.35% of 340,000 active; HEK293T cells, Vif self-association by quenched fluorescence, imaging, 24 h; inhibition, % at 7.49 µM; in the data active means inhibition above about 50%, passing the limit was not always enough; inconclusive means no clear call, values can overlap the other calls; inactive means below about 31%
CAL PDZ FP-2: blocks peptide binding to human CAL PDZ domain | 0.02% of 330,000 active | AID 504414 | purified CAL PDZ, TMR-peptide fluorescence polarization, 1 h | inhibition, % at 20 µM;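 active means highest replicate inhibition of at least 40%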;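 further: plate controls were DMSO neutral control wells for no effect and unlabeled competitor peptide control wells for full effect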
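Assay system – tagged CAL PDZ protein CerCALP, purified · Timing – 1 h at RT · Compound – single point, 20 µM · Measured by – fluorescence polarization from S- and P-plane intensities, G-factor corrected · Evaluation – inhibition from polarization loss · Probe or stimulus – TMR reporter peptide T*-PRC34 · Buffer or medium – pH 7.4 phosphate-saline buffer, reducing agent, detergent, IgG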
* = called active by the depositor; ? = inconclusive; · = no result.

entry	canonical_smiles	UUG fidelity	ARNT-TACC3 inh	CAL PDZ FP-1
1	O=C(C[C@@H]1CC[C@@H]2[C@H](COC[C@@H](O)CN2Cc2ccc(F)cc2)O1)N1CCc2ccccc2C1	18	4	·
2	O=C(C[C@H]1CC[C@H]2[C@@H](COC[C@@H](O)CN2Cc2ccc(F)cc2)O1)N1CCc2ccccc2C1	8	-7	·
3	O=S(=O)(c1ccc(F)cc1)c1snnc1-c1ccccc1	·	-8	-2
4	O=S(=O)(c1ccc(Cl)cc1)c1snnc1-c1ccccc1	-19	10	-3
5	C[C@@H]1CCCCO[C@H](CN(C)Cc2ccc3c(c2)OCO3)[C@H](C)CN([C@@H](C)CO)C(=O)c2cc(NC(=O)NC3CCCCC3)ccc2O1	6	-1	·
6	Clc1cc2c(c(CSc3nc4ccccc4n4cccc34)c1)OCOC2	7	-3	-6
7	Cc1noc(C)c1NC(=O)Nc1ccc2c(c1)C(=O)N([C@H](C)CO)C[C@@H](C)[C@@H](CN(C)Cc1ccccc1)OCCCC[C@@H](C)O2	12	2	·
8	Cc1cc(F)ccc1NC(=O)CCc1c(C)nn(-c2ccc(N3CCCCC3)nn2)c1C	-16	1	80*
9	Cc1ccc(F)cc1NC(=O)CCc1c(C)nn(-c2ccc(N3CCCCC3)nn2)c1C	-17	5	3
10	O=C(c1cc2ccccc2oc1=O)N(Cc1ccccc1)CC1CCCO1 (stereo not drawn)	-6	-14	-3

entry	PglD DTNB	Vif imaging	CAL PDZ FP-2
1	25*	·	·
2	20	·	·
3	·	6	0
4	-35	94*	0
5	-1	·	·
6	-5	76*	0
7	10	·	·
8	-1	-1	-2
9	0	?	-2
10	1	·	-1

Continued:
entry	canonical_smiles	UUG fidelity	ARNT-TACC3 inh	CAL PDZ FP-1
11	COc1cccc2cc(C(=O)N(Cc3ccccc3)CC3CCCO3)c(=O)oc12 (stereo not drawn)	-4	-9	43*
12	CC(C)(C)NC(=O)Cn1c(Cl)nc2ccccc21	·	1	69*
13	Cn1cc(CN2CCc3c([nH]c4ccccc34)C2C2CCCCC2)cn1 (stereo not drawn)	-11	-1	4
14	Cn1cc(CN2CCc3c([nH]c4ccccc34)C2C(C)(C)C)cn1 (stereo not drawn)	·	2	-2
15	CN(C)CCCNC(=O)C[C@@H]1CC[C@H]2[C@H](COc3ccc(NC(=O)C4CCC4)cc3C(=O)N2C)O1	-3	-4	·
16	CN(C)c1ccc(NC(=O)c2ccc3c(c2)nnn3C)cc1	-10	-3	2
17	CN(C)c1ccc(NC(=O)Nc2ccc3c(c2)nnn3C)cc1	-5	-4	43*
18	C[C@H](CO)N1C[C@H](C)[C@@H](CN(C)CC2CC2)Oc2c(NC(=O)NC3CCCCC3)cccc2C1=O	18	-1	·
19	O=C1C(=O)c2ccccc2C(O)=C1CCCCl	-69	37*	·
20	CCNC(=O)C[C@@H]1CC[C@@H]2[C@H](COc3ccc(NC(=O)Nc4cccc(F)c4)cc3C(=O)N2C)O1	3	2	·

entry	PglD DTNB	Vif imaging	CAL PDZ FP-2
11	2	-8	-1
12	·	2	1
13	-3	-5	-1
14	·	86*	-2
15	-4	·	·
16	2	11	-1
17	-2	8	-1
18	-1	·	·
19	2	2	0
20	-1	·	·

Compounds shown so far containing a Cl atom (4):
entry	canonical_smiles	UUG fidelity	ARNT-TACC3 inh	CAL PDZ FP-1
4	O=S(=O)(c1ccc(Cl)cc1)c1snnc1-c1ccccc1	-19	10	-3
6	Clc1cc2c(c(CSc3nc4ccccc4n4cccc34)c1)OCOC2	7	-3	-6
12	CC(C)(C)NC(=O)Cn1c(Cl)nc2ccccc21	·	1	69*
19	O=C1C(=O)c2ccccc2C(O)=C1CCCCl	-69	37*	·

entry	PglD DTNB	Vif imaging	CAL PDZ FP-2
4	-35	94*	0
6	-5	76*	0
12	·	2	1
19	2	2	0

(more compounds)
entry	canonical_smiles	UUG fidelity	ARNT-TACC3 inh	CAL PDZ FP-1
21	O=C(O)COc1ccccc1/C=C1\SC(=Nc2ccc(F)cc2)N(c2ccc(F)cc2)C1=O	-17	4	-2
22	O=C(O)COc1ccccc1/C=C1\SC(=S)N(/N=C/c2ccccc2O)C1=O	-17	70*	-2
23	O=C(O)COc1ccccc1/C=C1\SC(=S)N(NC(=O)c2ccccc2O)C1=O	-10	51*	-3
24	CCNC(=O)C[C@@H]1CC[C@H]2[C@@H](COC[C@@H](O)CN2C(=O)CC)O1	-15	10	·
25	O=C(c1cc(-c2ccc(Cl)cc2Cl)on1)N1CCCCCC1	-48	·	4
26	O=C(c1cc(-c2ccc(Cl)cc2Cl)on1)N1CCCC1	-47	-2	35*
27	CO[C@@H]1CN(C)C(=O)c2ccc(NC(C)=O)cc2OC[C@H](C)N(Cc2ccc(F)cc2)C[C@H]1C	4	0	·
28	Cc1cccc(NC(=O)c2ccc([N+](=O)[O-])s2)c1C	·	1	47*
29	Cc1ccnc2nc(C(=O)NCc3ccccc3)nn12	·	-6	197*
30	COc1ccc(C2CN=NC23CCc2ccccc2C3=O)cc1 (stereo not drawn)	3	-4	-1

entry	PglD DTNB	Vif imaging	CAL PDZ FP-2
21	-2	4	-3
22	-5	-7	-2
23	0	7	-1
24	0	·	·
25	4	-15	-2
26	0	-2	-2
27	0	·	·
28	·	5	-2
29	·	-3	8
30	-7	0	-1

(next part)
entry	canonical_smiles	UUG fidelity	ARNT-TACC3 inh	CAL PDZ FP-1
31	COc1ccc(C2CN=NC23CCCc2ccccc2C3=O)cc1 (stereo not drawn)	-9	2	57*
32	CC1(CC(=O)N/N=C/c2cc(Br)c(O)cc2O)OCCO1	37	75*	-4
33	Cc1oc(/C=N/NC(=O)CC2(C)OCCO2)cc1Br	1	-2	-5
34	O=[N+]([O-])c1ccc(SCc2ccco2)cc1N1CCOCC1	-15	7	45*
35	CCCC1Nc2ccc(C(=O)O)cc2C2C=CCC12 (stereo not drawn)	-4	9	·
36	CCOC(=O)C1Nc2ccc(C(=O)O)cc2C2C=CCC12 (stereo not drawn)	3	9	44*
37	C[C@H]1CCC(=O)N([C@H](CN=[N+]=[N-])Cc2ccccc2)CC1	-13	3	-3
38	[N-]=[N+]=NC[C@H](Cc1ccccc1)N1CCN(Cc2ccccc2)CCC1=O	2	2	-8
39	CC(C)[C@@H](C)NC(=O)N(C)C[C@H]1OCc2ccccc2-c2ccccc2C(=O)N([C@@H](C)CO)C[C@H]1C	·	-10	·
40	CCCCCN1CC(=O)N2[C@@H](Cc3c([nH]c4ccccc34)C2(C)C)C1=O	-14	-17	-1

entry	PglD DTNB	Vif imaging	CAL PDZ FP-2
31	-3	-10	-1
32	-1	5	-2
33	-2	1	0
34	0	5	-1
35	2	5	-1
36	-5	17	·
37	-2	59*	0
38	-1	-1	-8
39	0	·	·
40	1	1	-1

(next part)
entry	canonical_smiles	UUG fidelity	ARNT-TACC3 inh	CAL PDZ FP-1
41	Cc1ccccc1CN1C(=O)[C@@H]2Cc3c([nH]c4ccccc34)C(C)(C)N2C1=O	-1	4	-6
42	CC(C)CCN1CC(=O)N2[C@@H](Cc3c([nH]c4ccccc34)C2(C)C)C1=O	-3	-2	61*
43	CC1(C)c2[nH]c3ccccc3c2C[C@@H]2C(=O)N(Cc3ccccc3Cl)C(=O)N21	-12	-4	-11
44	CCNC(=O)[C@H]1[C@H](CO)[C@H]2Cn3c(cccc3=O)[C@@H]1N2C(=O)C1CCC1	·	-5	·
45	Cc1cccc(-c2ccc3c(c2)C2CC3CCN2C(=O)OCc2ccccc2)c1 (stereo not drawn)	-30	3	-5
46	O=C(OCc1ccccc1)N1CCC2CC1c1cc(-c3ccccc3)ccc12 (stereo not drawn)	-10	-2	53*

entry	PglD DTNB	Vif imaging	CAL PDZ FP-2
41	-5	105*	-1
42	5	0	0
43	0	4	0
44	-4	·	·
45	4	·	0
46	-2	-5	0

Assay outcomes deposited in PubChem by Broad Institute.
